Assay outcomes as filed in PubChem.
Only some compounds are listed: those with a hit (about 13% of all), similar ones and a draw of the others.
Sfp PPTase inh – Sfp phosphopantetheinyl transferase inhibition | Q9F4F7 | Biochemical Sfp PPTase activity, qHTS | Potency, µM, inactives show max response, negative = inhibition, usual class: inhibitors | actives 3.5% (n = 310,000) | AID 1490; active = well fitted inhibition curve with a large enough effect; inconclusive = small, poorly fitted or top-dose-only effect, or another doubt; inactive = no such curve, though single readings can be large or run the other way;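 also: the enzyme is Sfp with the accession as filed and its product quenches rhodamine fluorescence; potency is read from the fitted curve at half-maximal effect; 0% = enzyme reaction without inhibitor and -100% = no enzyme wells; top concentration of the series not given in the record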
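Compounds were incubated with enzyme (final 15 nM) for 15 min at room temperature before substrate addition started the reaction. Fluorescence at 525 nm excitation, 598 nm emission was recorded immediately and after 30 minutes.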
LMNA splice mod – LMNA splicing modulation. Potency, µM (highest dose often 46.1 µM), inactives show at the highest dose ratio change, negative = inhibition, actives largely listed as inhibitors. HeLa LMNA splicing GFP/RFP minigene ratio, 48 h. actives 0.01% (n = 200,000). AID 1487; active = well fitted inhibition curve with a large enough effect in the signal ratio, with a control signal flat, not every such curve was filed as active; inconclusive = small, poorly fitted or top-dose-only effect, or effect the other way, or a change in a side signal; the % refers to the signal ratio; note: potency is the fitted concentration of half-maximal effect; % is set by controls: 0 for no effect and ±100 for the full control effect
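S3 HeLa stable clones carrying a lamin A-EGFP splicing minigene plus DsRed2 were seeded at 600 cells/well in Opti-MEM with 2% FBS, pin-dosed and incubated 48 h at 37°C. Acumen cytometry (488 nm) gave the GFP/RFP total-intensity ratio.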
KDM4E inh – blocks human JMJD2E demethylase activity | B2RXH2 | JMJD2E catalytic domain, FDH-coupled NADH fluorescence (FDH is formaldehyde dehydrogenase) | Potency, µM (series often up to 57.1 µM), for inactives: at the highest dose activity change, negative = inhibition, hits mostly inhibitors | actives 1.6% (n = 230,000) | AID 2147; active = well fitted inhibition curve with a large enough effect, not every such curve was filed as active; inconclusive = small, poorly fitted or top-dose-only effect, or another doubt; inactive = no such curve, though single readings can be large or run the other way;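 note: potency is the fitted concentration of half-maximal effect; 0% = wells with enzyme and -100% = buffer wells without enzyme; nearly all actives have a fitted effect of over 50% in size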
G9a block – G9a (human) methyltransferase inhibition; Q96KQ7; G9a H3K9 monomethylation, AlphaScreen, 2 h; Potency, µM (top dose mostly 102 µM), inactives show at the highest dose activity, negative = inhibition, actives largely listed as inhibitors; actives 8.8% (n = 350,000); AID 504332; note: potency is the fitted concentration of half-maximal effect; % is set by controls: 0 for no effect and ±100 for the full control effect; nearly all actives have a fitted effect of over 75% in size
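Quantitative HTS format: methyltransferase activity on a biotin-tagged H3K9 peptide is measured by AlphaScreen, using a rabbit anti-monomethyl-H3K9 antibody with streptavidin donor and anti-IgG acceptor beads. Final levels are 20 nM enzyme, 500 nM peptide, 20 uM SAM; 2 h RT.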
miR-21 reporter – miR-21 reporter, rising signal; HeLa miR-21 FLuc reporter, luciferase, 48 h; Potency, µM (titrated, usually from 38.3 µM), for the others: at the top dose reporter change, positive = more light; 340,000 tested, under 10 active; AID 2288; active = well fitted rising curve with a large enough effect; inconclusive = small, poorly fitted or top-dose-only effect; inactive = no such curve, though single readings can be large or run the other way;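 also: % of control where 0% means no effect; miR-21 action dims this reporter so a rising signal means less miR-21 action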
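Using DMEM plus 10% FBS, HeLa miR-21-FLuc cells are incubated with test compounds (final up to about 40uM) for 48 hours; firefly luciferase signal is then imaged following reagent-mediated lysis.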
ALDH1A1 inh – blocks purified human ALDH1A1 activity; Purified ALDH1A1, NADH fluorescence, propionaldehyde substrate; Potency, µM (doses to about 75.3 µM), for the others: at the top dose activity, negative = inhibition, actives largely listed as inhibitors; actives 7.3% (n = 220,000); AID 1030; active = well fitted inhibition curve with a large enough effect, not every such curve was filed as active; inconclusive = small, poorly fitted or top-dose-only effect, or another doubt; inactive = no such curve, though single readings can be large or run the other way;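 note: potency is the fitted concentration of half-maximal effect; plate controls were no enzyme wells and a reference inhibitor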
Numbers without * were called inactive; ? = inconclusive; . = no result; [ ] = another dose, or the depositor's remark. Unless noted, calls come from the whole dose curve; as a rule, active = well fitted curve in the direction sought with a large enough effect; inconclusive = small, poorly fitted or top-dose-only effect, or another doubt; inactive = no such curve, though single readings can be large; an effect the other way counts as inactive or inconclusive.

The opening 3 records (preview)
structure,Sfp PPTase inh,LMNA splice mod,KDM4E inh,G9a block,miR-21 reporter,ALDH1A1 inh
C/C(CCc1ccc2c(c1)OCO2)=N\N=C(/N)SC1CC(=O)N(c2ccccc2F)C1=O (configuration not stated),79.4µM*,-3.4%[0.0737 µM],8.5%,33.5%[0.501 µM],-0.5%,?
CCN=C(Nc1ccc2c(c1)OCO2)SC1CC(=O)N(c2ccccc2F)C1=O (configuration not stated),-13.1%,?,0.8%,18.8%,-13.8%,17.8µM*
Cc1ccc(CSc2ccc(-c3ccco3)nn2)cc1,28.2µM*,1.4%,-6.8%,17.8µM*,-74.2%,-9.9%

The whole of this part, from the start:
structure,Sfp PPTase inh,LMNA splice mod,KDM4E inh,G9a block,miR-21 reporter,ALDH1A1 inh
C/C(CCc1ccc2c(c1)OCO2)=N\N=C(/N)SC1CC(=O)N(c2ccccc2F)C1=O (configuration not stated),79.4µM*,-3.4%[0.0737 µM],8.5%,33.5%[0.501 µM],-0.5%,?
CCN=C(Nc1ccc2c(c1)OCO2)SC1CC(=O)N(c2ccccc2F)C1=O (configuration not stated),-13.1%,?,0.8%,18.8%,-13.8%,17.8µM*
Cc1ccc(CSc2ccc(-c3ccco3)nn2)cc1,28.2µM*,1.4%,-6.8%,17.8µM*,-74.2%,-9.9%
Cc1cccc(CSc2ccc(-c3ccco3)nn2)c1,?,-4.2%,-28.3%,-20.5%[59 µM],-59.2%,?
Clc1cccc(CSc2ccc(-c3ccco3)nn2)c1,35.5µM*,.,-22.5%,15.8µM*,-37.6%,25.1µM*
Fc1ccccc1CSc1ccc(-c2ccco2)nn1,56.2µM*,.,?,39.8µM*,-52.2%,28.2µM*
Clc1ccc(CSc2ccc(-c3ccco3)nn2)cc1,56.2µM*,.,-6.0%,-45.8%,-29.3%,-5.2%
O=C1C[C@H](c2ccccc2)Oc2cc(O)cc(O)c21,-7.0%,.,1.9%,.,.,-0.1%
Cc1ccc(CSc2nnc(-c3ccc4c(c3)OCO4)o2)cc1,-12.0%,?,5.7%,5.2%[59 µM],2.2%,-2.3%
Cc1ccc(CSc2ccc(-c3ccc4c(c3)OCO4)nn2)cc1,-19.3%,-8.8%,1.0%,50.1µM*,-20.3%,11.2µM*
N#Cc1ccc(-c2ccco2)nc1SCc1ccccc1,-8.6%,17.8%,?,28.2µM*,5.2%,?
c1ccc(CSc2ccc(-c3ccco3)nn2)cc1,31.6µM*,-7.6%,-11.1%,25.1µM*,-54.3%,39.8µM*
c1ccc(CSc2ccc(-c3ccccn3)nn2)cc1,9.1%,.,-9.9%,-39.3%,-11.5%,6.7%
C=CCn1c(Sc2ncc([N+](=O)[O-])s2)n[nH]c1=O,10µM*,.,-27.4%,11.2µM*,?,2µM*
O=C1NCCN1c1ncc([N+](=O)[O-])s1,12.8%,-15.0%,-1.5%[25.5 µM],-1.0%[59 µM],.,0.1%[20.9 µM]
COC(=O)C1(C(=O)OC)C[C@@H]2CON=C2[C@H]1c1ccccc1,-10.1%,.,-4.1%,.,.,11.2%
O=C(c1ccc(N2CCN(C3CC(=O)N(Cc4cccs4)C3=O)CC2)cc1)c1cccnc1 (configuration not stated),0.0%,.,-3.9%,-47.3%,20.2%,3.16µM*
CCN1C(=O)NC2=C(C(=O)c3ccccc32)C1c1ccccc1F (configuration not stated),-10.3%,-19.2%,2.5%,?,6.6%,0.316µM*
CCOc1ccc(NC(=O)Cn2c(=O)cc(C)c3c(C)nn(-c4cccc(Cl)c4C)c32)cc1,.,-16.7%[46 µM],.,6.7%[59 µM],-2.2%,.
Cc1c(/C=N\NC(=O)c2csc3ccccc23)cnn1C,25.2%,5.0%,4.5%,96.0%[59 µM],-10.4%,-12.3%
Cc1nc(NC(=O)c2csc3ccccc23)sc1C,-14.8%,11.0%,-5.3%,44.7µM*,-12.3%,-11.9%
Cc1nc(NC(=O)c2ccccc2O)sc1C,1.9%,.,.,1.9%,-34.8%,.
Cc1nn(C)c(C)c1/C=N/NC(=O)c1csc2ccccc12,13.6%,-6.0%,12.2%,3.8%[59 µM],-17.8%,22.4µM*
Cc1noc(C)c1COc1ccc(C(=O)N2CCCC(C(F)(F)F)C2)cc1 (configuration not stated),16.3%,.,.,8.3%,-0.9%,.
N#CC1=C(SCC(N)=O)NC2=C(C(=O)c3ccccc32)C1c1ccc(Cl)cc1 (configuration not stated),2.4%,?,1.0%,50.1µM*,-23.0%,?
CC(C)(C)OC(=O)N1CCC[C@H]1c1nnc(SCc2ccccc2F)o1,5.6%,9.4%,-2.3%,50.1µM*,-16.1%,6.0%
CC(C)(C)OC(=O)N1CCC[C@H]1c1nnc(SCc2ccccc2)o1,-13.4%,.,-2.4%,?,-5.1%,.
CSc1cccc(NC(=S)N(CCCN2CCCC2)Cc2cccs2)c1,21.3%,.,-1.0%,-3.7%[59 µM],-5.1%,-2.4%
CSc1cccc(NC(=S)N(CCCN2CCCC2)Cc2cccn2Cc2ccc(Cl)cc2)c1,79.4µM*,.,-3.4%,35.5µM*,1.7%,?
COc1cccc(NC(=S)N(CCCN2CCCC2)Cc2ccco2)c1,21.0%,?,4.4%,15.7%,-9.6%,8.9%
COc1cccc(NC(=S)N(CCCN2CCCC2)Cc2cccn2Cc2ccc(Cl)cc2)c1,6.6%,8.4%[46 µM],1.1%,39.8µM*,-3.8%,-6.3%
S=C(Nc1cccc(Cl)c1)N(CCCN1CCCC1)Cc1cccn1Cc1ccc(Cl)cc1,63.1µM*,.,-4.0%,35.5µM*,-4.9%,?
COc1cc(OC)c(NC(=O)c2c(C)oc3nc(C)nc(N4CCOCC4)c23)cc1Cl,.,3.3%[46 µM],.,-1.0%[59 µM],1.4%,.
Cc1nn(CC(=O)NCCc2ccc(Cl)cc2)c(=O)c2cc3cc(F)ccc3n12,.,.,.,13.7%[59 µM],-3.4%,.
O=C1OC/C(=C(/O)c2ccc(Cl)cc2)C1=O,6.7%,.,.,39.8µM*,-10.6%,.
Cc1ccc(CN(Cc2cccn2-c2nnc(N3CCCC3=O)s2)C(=O)Nc2ccccc2Cl)cc1,.,.,.,-27.2%[59 µM],8.6%,.
Oc1ccc(Br)cc1/C=N/N1CCCCC1,-0.5%,-14.3%,0.3%,11.2µM*,-58.3%,-13.7%
O=C1CSC(=S)N1/N=C/c1ccc(O)c(O)c1O,3.16µM*,.,2.24µM*,1.26µM*,1.5%,.
CC(C)(C)c1ccc(/C=N/N2C(=O)CSC2=S)cc1,-0.5%,.,.,?,-8.1%,.
COc1ccc(/C=N/N2C(=O)CSC2=S)cc1Br,.,.,.,1.7%[12.7 µM],.,.
O=C1CSC(=S)N1/N=C/c1cc(Br)ccc1O,-14.9%,.,.,10µM*,-6.6%,.
Cc1cc(NC(=O)c2cc(-c3cccc(OCC(C)C)c3)nc3ccccc23)no1,5.8%,.,.,.,6.1%,.
COC(=O)c1ccc(S(=O)(=O)NCCSc2nnc3c4ccccc4n(C)c3n2)cc1,6.7%,?,4.9%,-39.0%[59 µM],-0.7%,15.8µM*
Cn1c(CN2CCCCC2)c(C#N)c2ccccc21,10.1%,-0.3%,-23.4%,28.2µM*,-13.4%,?
Cn1c(CN2CCN(CC#N)CC2)c(C#N)c2ccccc21,-0.8%,2.9%,-2.6%,44.7µM*,-5.4%,?
COc1ccc(C(=O)NC(C)c2ccc(-n3ccnc3)cc2)cc1[N+](=O)[O-] (configuration not stated),6.9%,.,.,-1.9%,0.6%,.
Cc1cc(C)cc(C(=O)OCC(=O)NCc2cccs2)c1,-12.0%,8.0%,-16.4%,-23.0%,10.8%,11.4%
Cc1cc2c(cc(C(=O)OCC(=O)NCc3cccs3)n2C(C)C)o1,-24.4%,-18.9%,-2.5%,?,10.3%,18.9µM*
O=C(CCS(=O)(=O)c1ccccc1)Nc1nc2c(s1)COc1ccccc1-2,-9.4%,?,?,50.1µM*,19.1%,?
